# Earlier results as cited in PMC9860728, “Identification of New N-methyl-piperazine Chalcones as Dual MAO-B/AChE Inhibitors” (Pharmaceuticals, 2023).
# Amino acid sequences for entries named in this document (tags omitted). Residues count along the entry.
# UniProt O42275, 24-633 limits assumed: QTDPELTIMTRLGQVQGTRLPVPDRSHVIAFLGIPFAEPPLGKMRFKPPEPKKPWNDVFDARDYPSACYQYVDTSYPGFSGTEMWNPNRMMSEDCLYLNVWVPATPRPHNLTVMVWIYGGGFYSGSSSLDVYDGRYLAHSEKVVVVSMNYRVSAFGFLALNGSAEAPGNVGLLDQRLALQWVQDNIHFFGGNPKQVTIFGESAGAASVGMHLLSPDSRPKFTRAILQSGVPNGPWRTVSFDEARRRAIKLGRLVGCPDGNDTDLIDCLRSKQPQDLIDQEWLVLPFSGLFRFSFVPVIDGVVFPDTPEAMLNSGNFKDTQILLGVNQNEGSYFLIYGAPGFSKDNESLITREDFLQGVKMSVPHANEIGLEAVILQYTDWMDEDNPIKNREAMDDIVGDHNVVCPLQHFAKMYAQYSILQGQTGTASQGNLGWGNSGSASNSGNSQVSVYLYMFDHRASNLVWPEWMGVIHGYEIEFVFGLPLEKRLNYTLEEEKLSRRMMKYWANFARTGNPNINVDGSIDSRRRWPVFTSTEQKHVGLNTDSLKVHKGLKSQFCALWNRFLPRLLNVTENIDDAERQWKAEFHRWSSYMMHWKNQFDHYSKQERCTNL
# Biological target: AChE (Electrophorus electricus, UniProt O42275)
# Settings: read-out: IC50 (μM) AChE; cited from earlier work
compound,measurement,value
CN(C)c1ccc(/C=C/C(=O)c2ccc(N3CCNCC3)cc2)cc1,IC50,> 10 µM
